According to patent publication US20210275657A1, “NEOANTIGENS AND USES THEREOF” (BioNTech US Inc., priority 2018, published 2021):
Where two headings read alike, the source gives them in different places. Where a SMILES comes first, the peptide text is derived from it. Where no end group is shown, it is not given here.

Tests used:
[1] = for Solubility in 5 mM SS in D5W w/ 4% DMSO: 5 mM sodium succinate in D5W; for Solubility in 5 mM SS in D5W w/ 4% DMSO / Solubility in 5 mM SS in D5W w/o DMSO: no polyICLC; for Solubility in 5 mM SS in D5W w/o DMSO: no DMSO
[2] = 5 mM sodium succinate in D5W with 4% DMSO, Peptide Solubility (at 0.4 mg/mL) (Y/N), 5 mM SS/D5W with 4% DMSO, 0.4 mg/mL
[3] = 5 mM sodium succinate in D5W with 4% DMSO, Peptide Solubility (at 2 mg/mL) (Y/N), 5 mM SS/D5W with 4% DMSO, 2 mg/mL
[4] = […] sodium succinate in D5W with 4% DMSO, Peptide Solubility (at 0.4 mg/mL) (Y/N), […] SS/D5W with 4% DMSO, 0.4 mg/mL
[5] = […] sodium succinate in D5W with 4% DMSO, Peptide Solubility (at 2 mg/mL) (Y/N), […] SS/D5W with 4% DMSO, 2 mg/mL

| Molecule | Solubility in 5 mM SS in D5W w/ 4% DMSO [1] | solubility (physchem; [2]) [µg/mL] | solubility (physchem; [3]) [µg/mL] | solubility (physchem; [4]) [µg/mL] | solubility (physchem; [5]) [µg/mL] | Formulation Observations (at 0.4 mg/mL) ([1]; 5 mM SS/D5W with 4% DMSO) | Formulation Observations (at 2 mg/mL) ([1]; 5 mM SS/D5W with 4% DMSO) | Formulation Observations (at 0.4 mg/mL) ([1]; […] SS/D5W with 4% DMSO) | Formulation Observations (at 2 mg/mL) ([1]; […] SS/D5W with 4% DMSO) | Solubility in 5 mM SS in D5W w/o DMSO [1] |
| --- | --- | --- | --- | --- | --- | --- | --- | --- | --- | --- |
| KKKKKPKRDGYMFLKAESKIMFAT [Peptide 10b-4K] | Yes |  |  |  |  |  |  |  |  |  |
| DGYMFLKAESKIMFAT [Peptide L11e] | No | < 400 | < 2000 | < 400 | < 2000 | Glassy | cloudy, large | glassy | gel |  |
| CC[C@H](C)[C@H](NC(=O)[C@H](CCCCN)NC(=O)[C@H](CO)NC(=O)[C@H](CCC(=O)O)NC(=O)[C@H](C)NC(=O)[C@H](CCCCN)NC(=O)[C@H](CC(C)C)NC(=O)[C@H](Cc1ccccc1)NC(=O)[C@H](CCSC)NC(=O)[C@H](Cc1ccc(O)cc1)NC(=O)CNC(=O)[C@H](CC(=O)O)NC(=O)[C@H](CCCNC(=N)N)NC(=O)[C@H](CCCCN)NC(=O)[C@@H]1CCCN1C(=O)[C@@H](N)CCCCN)C(=O)N[C@@H](CCSC)C(=O)N[C@@H](Cc1ccccc1)C(=O)N[C@@H](C)C(=O)N[C@H](C(=O)N[C@@H](CC(C)C)C(=O)N[C@@H](CCC(N)=O)C(=O)N[C@@H](CCCNC(=N)N)C(=O)N[C@@H](CO)C(=O)N[C@@H](CO)C(=O)N[C@@H](CC(C)C)C(=O)N[C@@H](Cc1c[nH]c2ccccc12)C(=O)N[C@@H](CS)C(=O)N[C@@H](CC(C)C)C(=O)N[C@@H](CS)C(=O)N[C@@H](CO)C(=O)N[C@@H](CC(N)=O)C(=O)N[C@@H](Cc1c[nH]cn1)C(=O)O)[C@@H](C)O [Peptide L15] (H-KPKRDGYMFLKAESKIMFATLQRSSLWCLCSNH-OH; N-terminus and C-terminus assumed) | No | < 400 | < 2000 | > 400 | > 2000 | Cloudy over | cloudy | clear | clear |  |
| FLKAESKIMFATLQRSSLWCL [Peptide L11] |  | < 400 | < 2000 | > 400 | < 2000 | Glassy | cloudy, | clear | glass |  |
| KPKRDGYMFLKAESKIMFATLQR [Peptide 10] | Yes |  |  |  |  |  |  |  |  |  |
| KKKKKAESKIMFATLQRSSLWCL [Peptide 11d-4K] | Yes |  |  |  |  |  |  |  |  |  |
| CC[C@H](C)[C@H](NC(=O)[C@H](CCCCN)NC(=O)[C@H](CCCCN)NC(=O)[C@H](CCCCN)NC(=O)[C@H](CCCCN)NC(=O)[C@@H](N)CCCCN)C(=O)N[C@@H](CCSC)C(=O)N[C@@H](Cc1ccccc1)C(=O)N[C@@H](C)C(=O)N[C@H](C(=O)N[C@@H](CC(C)C)C(=O)N[C@@H](CCC(N)=O)C(=O)N[C@@H](CCCNC(=N)N)C(=O)N[C@@H](CO)C(=O)N[C@@H](CO)C(=O)N[C@@H](CC(C)C)C(=O)N[C@@H](Cc1c[nH]c2ccccc12)C(=O)N[C@@H](CS)C(=O)N[C@@H](CC(C)C)C(=O)N[C@@H](CS)C(=O)N[C@@H](CO)C(=O)N[C@@H](CC(N)=O)C(=O)N[C@@H](Cc1c[nH]cn1)C(=O)O)[C@@H](C)O [Peptide 12-4K] (H-KKKKKIMFATLQRSSLWCLCSNH-OH) | Yes |  |  |  |  |  |  |  |  |  |
| KPKRDGYMFLKAESKIMFATLQR [Peptide L10] |  | > 400 | > 2000 |  |  | clear | clear |  |  |  |
| LHFCRSSIMKPKRDGYMFLKAESKI [Peptide 9] | Yes |  |  |  |  |  |  |  |  | Yes |
| FLKAESKIMFATLQRS [Peptide L11f] |  | < 400 | < 2000 | > 400 | > 2000 | Glassy | cloudy | clear | clear |  |
| CC(C)C[C@H](NC(=O)[C@H](CS)NC(=O)[C@H](Cc1c[nH]c2ccccc12)NC(=O)[C@H](CC(C)C)NC(=O)[C@H](CO)NC(=O)[C@H](CO)NC(=O)[C@H](CCCNC(=N)N)NC(=O)[C@H](CCC(N)=O)NC(=O)[C@H](CC(C)C)NC(=O)[C@@H](N)[C@@H](C)O)C(=O)N[C@@H](CS)C(=O)N[C@@H](CO)C(=O)N[C@@H](CC(N)=O)C(=O)N[C@@H](Cc1c[nH]cn1)C(=O)O [Peptide L12d] (H-TLQRSSLWCLCSNH-OH) | Yes | > 400 | > 2000 | > 400 | > 2000 | clear | clear | clear | clear |  |
| LHFCRSSIMKPKRDGYMFLKAESKI [Peptide L9] |  | > 400 | > 2000 |  |  | clear | clear |  |  |  |
| GPPARVPAVPFDLHFCRSSIMKPKRD [Peptide 8] | Yes |  |  |  |  |  |  |  |  | Yes |
| CSCC[C@H](N)C(=O)N[C@@H](Cc1ccccc1)C(=O)N[C@@H](C)C(=O)N[C@H](C(=O)N[C@@H](CC(C)C)C(=O)N[C@@H](CCC(N)=O)C(=O)N[C@@H](CCCNC(=N)N)C(=O)N[C@@H](CO)C(=O)N[C@@H](CO)C(=O)N[C@@H](CC(C)C)C(=O)N[C@@H](Cc1c[nH]c2ccccc12)C(=O)N[C@@H](CS)C(=O)N[C@@H](CC(C)C)C(=O)N[C@@H](CS)C(=O)O)[C@@H](C)O [Peptide L12c] | No | < 400 | < 2000 | < 400 | < 2000 | Glassy | cloudy, large | cloudy | large |  |
| ESKIMFATLQRSSLWC [Peptide L11g] | No | < 400 | < 2000 | > 400 | < 2000 | Glassy | cloudy | clear | gel over time |  |
| CSCC[C@H](NC(=O)[C@H](CCCCN)NC(=O)[C@H](CCCCN)NC(=O)[C@H](CCCCN)NC(=O)[C@@H](N)CCCCN)C(=O)N[C@@H](Cc1ccccc1)C(=O)N[C@@H](C)C(=O)N[C@H](C(=O)N[C@@H](CC(C)C)C(=O)N[C@@H](CCC(N)=O)C(=O)N[C@@H](CCCNC(=N)N)C(=O)N[C@@H](CO)C(=O)N[C@@H](CO)C(=O)N[C@@H](CC(C)C)C(=O)N[C@@H](Cc1c[nH]c2ccccc12)C(=O)N[C@@H](CS)C(=O)N[C@@H](CC(C)C)C(=O)N[C@@H](CS)C(=O)N[C@@H](CO)C(=O)N[C@@H](CC(N)=O)C(=O)N[C@@H](Cc1c[nH]cn1)C(=O)O)[C@@H](C)O [Peptide 12b-4K] (H-KKKKMFATLQRSSLWCLCSNH-OH) | Yes |  |  |  |  |  |  |  |  |  |
| GPPARVPAVPFDLHFCRSSIMKPKRD [Peptide L8] |  | > 400 | > 2000 |  |  | clear | clear |  |  |  |
| KPKRDGYMFLKAESKI [Peptide L10c] | Yes | > 400 | > 2000 |  |  | clear | clear |  |  | Yes |
